Measurements as given in patent US20230018670A1.

Biological target: T1, B7H3 on human melanoma and pediatric cancer cell lines (human) (UniProt Q5ZPR3)
T1 sequence (looked up): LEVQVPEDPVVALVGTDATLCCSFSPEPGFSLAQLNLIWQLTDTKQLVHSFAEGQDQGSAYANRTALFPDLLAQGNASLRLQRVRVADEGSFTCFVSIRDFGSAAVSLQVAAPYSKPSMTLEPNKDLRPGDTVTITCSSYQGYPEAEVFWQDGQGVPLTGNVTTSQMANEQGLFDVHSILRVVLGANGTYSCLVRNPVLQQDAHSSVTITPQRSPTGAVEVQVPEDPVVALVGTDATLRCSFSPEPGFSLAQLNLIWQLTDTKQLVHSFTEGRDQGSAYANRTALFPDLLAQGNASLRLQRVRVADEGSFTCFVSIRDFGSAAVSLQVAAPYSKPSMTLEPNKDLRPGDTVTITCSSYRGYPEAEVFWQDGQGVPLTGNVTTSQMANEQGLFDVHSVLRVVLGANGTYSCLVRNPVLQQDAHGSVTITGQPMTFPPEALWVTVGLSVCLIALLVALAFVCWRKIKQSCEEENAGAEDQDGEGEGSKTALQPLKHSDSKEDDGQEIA
Assay: flow cytometry on M21 cells (human melanoma, GD2+ B7H3+; GD2 arm may add), 1 ug antibody per million cells, GAH PE

MFI: 362 MFI
B1: Invenra B7H3 I7-01xGD2-2 (bispecific antibody, V domains shown)
VL 1: DIQMTQSPSSLSASVGDRVTITCRASQSVSSAVAWYQQKPGKAPKLLIYSASSLYSGVPSRFSGSRSGTDFTLTISSLQPEDFATYYCQQSGRSLYTFGQGTKVEIK
VH 1: EVQLVESGGGLVQPGGSLRLSCAASGFTFSTYYIHWVRQAPGKGLEWVAWIHPSGKYTYYADSVKGRFTISADTSKNTAYLQMNSLRAEDTAVYYCARHYQVGAMDYWGQGTLVTVSS
VH 2: EVQLVESGGGLVQPGGSLRLSCAASGFSFTGYNMNWVRQAPGKGLEWVAAIDPYYGGTYYADSVKGRFTISADTSKNTAYLQMNSLRAEDTAVYYCARGMEYWGQGTLVTVSS
VL 2: DIQMTQSPSSLSASVGDRVTITCRSSQSLVHRNGNTYLHWYQQKPGKAPKLLIHKVSNRFSGVPSRFSGSGSGTDFTLTISSLQPEDFATYYCSQSTHVPPLTFGQGTKVEIK
